Measurements as given in PubChem BioAssay AID2417 (National Center for Advancing Translational Sciences (NCATS), 2010).
This is a selection; strong and weak results do not stand in their true shares. Inconclusive results are not listed. Activity calls are given as the source filed them.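 The calls were made as follows: active = readout at or below -70, meaning at least 70% loss of cells showing the perinucleolar compartment, a nuclear body marking cancer cells; inconclusive = readout between -30 and a set limit; inactive = the rest.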

assay: High Content Assay for Compounds that inhibit the Assembly of the Perinucleolar Compartment; details: PC3M PTB-GFP, PNC prevalence imaging, 16 h; at 10 µM; stronger effect = lower value
Source text: High Content Assay for Compounds that inhibit the Assembly of the Perinucleolar Compartment NIH Chemical Genomics Center [NCGC] NIH Molecular Libraries Probe Centers Network [MLPCN] MLPCN Grant: MH082371-01A2 Assay Submitter (PI): Sui Huang, Northwestern University, Feinberg School of Medicine, Cell and Molecular Biology, Chicago, Illinois. The perinucleolar compartment (PNC) is a non-membrane-bound nuclear subdomain that is associated with but structurally distinct from the nucleolus. The PNC is a heritable trait, in which the number of PNCs per cell in daughter cells often mimics that of their mother cells. The PNC is heterogeneous in shape, is stable through interphase, disassembles during mitosis, and reassembles in early G1. The PNC is concentrated with newly synthesized RNA polymerase III (pol III) RNAs (MRP RNA, RNAse P H1 RNA, hY RNAs[hY1, 2, 5], Alu RNA, and SRP [7SL] RNA) and RNA binding proteins (nucleolin, PTB, CUG-BP, KSRP, Raver1, Raver2, and Rod). […] Extensive in vitro studies have shown that the PNC is unique to tumor cells and preferentially forms in tumor cells derived from solid tissues. Examination of cancer cell lines from various origins and malignant capacities has shown that PNC prevalence correlates with the malignancy of tumors and has the potential to be developed as a pan-cancer prognostic marker. […] Although the PNC is associated with a DNA locus and a handful of components have been identified, much remains to be investigated regarding the structure and function of the PNC and its mechanistic link to cancer. We have previously shown that PNC prevalence reduction is a valid strategy to identify compounds that can be used to study the structure and function of the PNC. It is necessary, however, to create a screening platform that is able to test a large number of compounds in an automated fashion. Here we report the development and robustness of an automated whole-cell phenotypic image-based screening assay that is capable of identifying such compounds.
PNC High Content Imaging Assay Procedure: 1. Cells at a density of 75-90% confluency in T175 flasks were harvested using 7 ml TrypLE Express cell dissociation reagent. After dissociation (5 minutes room temperature incubation) 10 ml of complete media was added to the TrypLE/cell suspension. The liquid was transferred to a 50 ml Conical tube and cells were pelleted at 1000 RPM for 5 min. Supernatant was removed and cells were resuspended to a final density of 150-200 cells/ul in complete media. 2. Cells were plated in 5 ul volume (750-1000 cells/well) into 1536 well Black uclear Aurora Low Base plates and allowed to recover and adhere at 37 C in a humidified 5% CO2 incubator for 4 hours. 3. After 4 hour incubation, compound libraries (23 nl of […] in columns 5-48) were transferred to the plates in duplicate using a 1536 well pintool. Camptothecin positive control (59 uM final) was added to column 2 and 1:3 dilutions of camptothecin was added to column 3. DMSO negative controls were present in columns 1 and 4. 4. After a 16 hour incubation in the 37 C incubator, cells were fixed by the addition of 4 ul of 6% EM grade paraformaldehyde (containing 0.1% triton X 100) directly to the cells. The plates were incubated at room temperature for 20 minutes. The liquid was removed using a 32 channel Kalypsys aspirator and the fixed cells were washed twice with 5 ul PBS followed by a final addition of 5 ul PBS containing 1 ug/ml Hoechst 33342. 5. Fixed plates were sealed and sotred at 4C until imaged. 6. Plates were imaged on an InCell 1000 automated microscope using a 20 x objective, a standard FITC filter set, no camera binning, and an exposure time of ~100-150 msec/well. 7. Data analysis. PNC prevalence was determined using the Multitarget analysis module from InCell Workstation software (V3.5 ) and analysis was run on a quad core workstation using the Incell Developer Toolbox (V1.7). […]

| SMILES | activity change (PNC), negative = inhibition |
| --- | --- |
| Cc1cc(C)cc(OP(C)(=O)Nc2ccc(C)cc2C)c1 (stereo not given) | inactive: -12% |
| CCOC(=O)c1ccc(NP(C)(=O)Oc2cc(C)cc(C)c2)cc1 (stereo not given) | inactive: -4.15% |
| Cc1cc(C)cc(OP(C)(=O)Nc2ccccn2)c1 (stereo not given) | inactive: -27.4% |
| Cc1ccc(C)c(NP(C)(=O)Oc2ccccc2)c1 (stereo not given) | inactive: -4.91% |
| CN1CCCCC1COC(=O)C1(O)c2ccccc2CCc2ccccc21 (stereo not given) | inactive: 61.9% |
| COc1ccccc1OP(C)(=O)Nc1c(C)cccc1C (stereo not given) | inactive: -2.16% |
| Cc1nc2ccc3ccccc3c2s1.O=[N+]([O-])c1cc([N+](=O)[O-])c(O)c([N+](=O)[O-])c1 | inactive: 3.22% |
| Cc1cccc(C)c1OP(C)(=O)Nc1ccc(SC(F)(F)F)cc1 (stereo not given) | inactive: 12.2% |
| CCOP(C)(=S)SCC(=O)NC(C)C(=O)O (stereo not given) | inactive: -6.25% |
| CCOC(=O)c1ccc(NP(C)(=O)Oc2ccc(OC)cc2)cc1 (stereo not given) | inactive: -22.4% |
| CP(=O)(Nc1ccccn1)Oc1ccc(Cl)cc1 (stereo not given) | inactive: -8.43% |
| CP(=S)(Nn1cnnc1)Oc1ccccc1 (stereo not given) | inactive: 10.5% |
| CP(=O)(Nc1ccccc1Br)Oc1ccccc1 (stereo not given) | inactive: -27.5% |
| CC(C)(C)c1ccc(OP(C)(=O)Nc2ccc(SC(F)(F)F)cc2)cc1 (stereo not given) | inactive: 8.11% |
| COc1ccccc1OP(C)(=O)Nc1ccc(C)cc1 (stereo not given) | inactive: -28.5% |
| COc1ccc(OP(C)(=O)Nc2cccc(F)c2)cc1 (stereo not given) | inactive: 16.3% |
| CN(C)CCOC(=O)C(O)(c1ccccc1)C1CCCC1 (stereo not given) | inactive: 5.97% |
| COc1ccc(OP(C)(=O)Nc2ccccn2)cc1 (stereo not given) | inactive: 25.2% |

| SMILES | activity change (PNC), negative = inhibition |
| --- | --- |
| Cc1c(NP(C)(=O)Oc2ccc(C(C)C)cc2)c(=O)n(-c2ccccc2)n1C (stereo not given) | inactive: 55.2% |
| CCc1ccc(OP(C)(=O)O)cc1 | inactive: 54.8% |
| COc1ccccc1OP(C)(=O)Nc1ccc(C)cc1C (stereo not given) | inactive: -23.7% |
| COc1ccccc1OP(C)(=O)Nc1ccc(C)c(C)c1 (stereo not given) | inactive: 26.2% |
| Cc1nc2ccc3ccccc3c2o1.O=[N+]([O-])c1cc([N+](=O)[O-])c(O)c([N+](=O)[O-])c1 | inactive: 34.1% |
| CCOC(=O)c1ccc(NP(C)(=O)Oc2ccc(Cl)cc2)cc1 (stereo not given) | inactive: -26.5% |
| CP(=O)(Oc1ccccc1)N1CCOC1=O (stereo not given) | inactive: 42.2% |
| COc1ccccc1OP(C)(=O)Nc1c(C)n(C)n(-c2ccccc2)c1=O (stereo not given) | inactive: 30.1% |
| CP(=O)(Nc1ccc(Cl)cc1)Oc1ccc(F)cc1 (stereo not given) | inactive: 12.2% |
| CC(C)(C)c1ccc(OP(C)(=O)O)cc1 | inactive: 19.4% |
| Cc1ccccc1NP(C)(=O)Nc1ccccc1C | inactive: -19.3% |
| CCOC(=O)c1ccc(NP(C)(=O)Oc2ccc(F)cc2)cc1 (stereo not given) | inactive: -5.98% |
| CCN(CC)CCCOC(=O)C(O)(c1ccccc1)C1CCCCC1 (stereo not given) | inactive: 28.5% |
| CP(=O)(Nc1ccccc1)Oc1ccc(F)cc1 (stereo not given) | inactive: 58.9% |
| CC(C)c1ccc(OP(C)(=O)Nc2ccc(SC(F)(F)F)cc2)cc1 (stereo not given) | inactive: -29.2% |
| CP(=O)(Nc1ccccc1F)Oc1ccccc1 (stereo not given) | inactive: 6.62% |
| O=C(OCCN1CCN(CCOCc2ccccc2)CC1)C(O)(c1ccccc1)c1ccccc1 | inactive: 45% |
